scFv variants of Ab-91 (heavy chain) against a SARS-CoV-2 spike peptide

Source: Engelhart et al. 2022 (doi:10.1038/s41597-022-01779-4), MIT Lincoln Laboratory and A-Alpha Bio; data file from the FLAb repository.

Antigen: PDVDLGDISGINAS, a 14-residue peptide of the SARS-CoV-2 spike HR2 region.

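Phage display of a naive human antibody library on the peptide gave the parent. AAYL51 was designed without a model: most single CDR substitutions and a random sample of double and triple ones. Affinity was read by AlphaSeq, a pooled yeast mating assay with surface-displayed partners. The frequency of each diploid, read from paired DNA barcodes, reflects how well the two displayed proteins bind. The ratio of observed to expected reads was calibrated, replicate by replicate, on BCL2-family standards whose Kd was known from biolayer interferometry. Mating was done three times.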

The variants keep the light chain, the linker and the frameworks of Ab-91 (scFv order VL, the linker GGGGSGGGGSGGGGS, VH).
VL: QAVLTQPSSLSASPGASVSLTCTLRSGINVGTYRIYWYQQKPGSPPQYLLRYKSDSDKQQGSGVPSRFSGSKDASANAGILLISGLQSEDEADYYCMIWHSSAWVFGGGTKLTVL
VH: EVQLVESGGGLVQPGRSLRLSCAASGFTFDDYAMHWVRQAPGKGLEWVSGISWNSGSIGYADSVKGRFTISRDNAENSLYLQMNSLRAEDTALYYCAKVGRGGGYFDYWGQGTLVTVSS

Each variant is given by its three heavy chain CDRs, as the data file delimits them; those of the parent are GFTFDDYAMH, GISWNSGSIGYADSVK, VGRGGGYFDY.
Values are log10 of the apparent Kd in nM; lower means stronger binding.
"ND" marks a missing value. The strain was present, yet no cells mated with the target were sequenced in that replicate, which points to weak or no binding.
For reference, the parent read 1.86 as the reference entry and 0.88 as a member of this library.
Nonspecific signal, from three strains lacking the peptide, appeared in 21% of pairings of library AAYL51, centred on 4.54 (5% of these signals below 3.26); values are not corrected for it. For each scFv, signals with the empty controls are counted beside the result, with their mean in brackets.

CDR-H1 | CDR-H2 | CDR-H3 | log10 Kd, replicates | control signals
GFTFDDYAMH | GISWNSGSGTYADSVK | VGRGGGYEDY | ND 5.58 ND | 0/9
GFTFDDFAMH | GISWNSGSIGYADSRK | VPRGGGYFDY | ND ND ND | 3/9 (5.39)
GFPFDDYAMH | GISWNSGSIGYADSVK | MGMGGGYFDY | ND ND ND | 0/9
GFRFEDYAMH | GISWNSGSIGYADSVK | VGRGGGYFDY | 4.49 5.06 4.14 | 4/9 (4.22)
GFTFDDYAMH | GISWNSGGIGHADSVK | VGRGGGYFGY | ND ND ND | 4/9 (5.09)
GFTFDDYAMH | GISWNEGSIGYADSFG | VGRGGGYFDY | 4.78 6.31 5.06 | 9/9 (5.28)
GFIFDDYAMH | GNSWNSGSIGYADSVK | VGRGGGEFDY | ND ND ND | 1/9 (3.49)
GFTFQDYAYH | GISSNSGSIGYADSVK | VGRGGGYFDY | 2.99 3.56 ND | 5/9 (4.19)
GFTSDDYAMH | KISWNSGTIGYADSVK | VGRGGGYFDY | ND ND ND | 0/9
GFTFDDYAMH | GISWNSGSIGLADSVP | YGRGGGYFDY | ND ND ND | 0/9
GFTFDDYAMH | GESNNSGSIGYADSVK | VGRMGGYFDY | ND ND ND | 2/9 (3.90)
GFTFDDYAMH | GIHWNSGSIGYTDSVK | VGRGGGYFDY | 4.19 2.66 2.48 | 1/9 (5.10)
GFTFDDYAMH | GISWNSGVIGDADSVK | VGSGGGYFDY | ND ND ND | 0/9
GFTFRDYAMH | GISPNSGSIGYADSVK | VGRGGGYFDM | 0.83 1.01 0.12 | 5/9 (4.37)
GFTLDDYHMH | GISWNSGSIGYADSVK | VGRGGGYFDY | ND ND 3.99 | 1/9 (4.11)
GFTFDDYAMH | GISTNSGSIGYADSVK | VGRRGGYFDY | 2.25 2.34 1.61 | 3/9 (3.66)
EFTFSDYAMH | GISWNSGSIGYKDSVK | VGRGGGYFDY | ND 3.30 ND | 3/9 (4.30)
GFTFHDYAMH | GISWNSGSIGYADSVM | VHRGGGYFDY | 4.16 ND ND | 3/9 (4.20)
GFTFDYYAMH | GISWNSGSIGYGDSVR | VGRGGGYFDY | 5.17 4.46 ND | 4/9 (3.98)
GFTRTDYAMH | GISWNSGSIGYADSVK | VGRGGGYIDY | ND ND ND | 0/9
GFTDDDYAMH | GISWNSISIGYADSVK | VGRGGGYGDY | ND ND ND | 0/9
GFTFADYAIH | GISWNSGSIGYADCVK | VGRGGGYFDY | 4.81 ND ND | 5/9 (5.04)
GFTFDLYAMH | GISWNSGSIGYRDSVK | VVRGGGYFDY | 2.93 3.22 2.77 | 6/9 (4.74)
GFTFDDYAMH | GISWNSGHYGYADSVK | VGCGGGYFDY | ND ND 4.54 | 1/9 (5.59)
GYTFDDYAMH | GISWNSGWIGYADEVK | VGRGGGYFDY | ND 4.92 ND | 0/9
EFTFDDYAMH | GISWNSTSIGYADSVK | VGRGGGVFDY | ND ND 3.99 | 0/9
GFTFDDYAMW | GISWNSGSIGYADSVM | VGRGGGKFDY | ND 4.72 5.49 | 3/9 (4.09)
GFTFDDYAEH | GASWNSGSIGYADSVK | VGRGGWYFDY | 4.29 3.94 4.31 | 8/9 (4.33)
GFTKDAYAMH | GISWNSGSIGYADVVK | VGRGGGYFDY | ND ND ND | 2/9 (4.04)
GFTFDGYAMH | WISWNSGSIGYADSVM | VGRGGGYFDY | ND ND ND | 0/9
GFTYDDYAMH | GISWNSTSIGYADSVK | VGRGPGYFDY | ND ND ND | 0/9
GFTFDDYAGH | GISWNSGSIGYADGVK | VGRGGGYFDE | 5.14 5.92 ND | 5/9 (4.23)
GFTFDDYAMH | GISWNSGSIGYATSVK | YGRGGGYQDY | ND ND ND | 0/9
GFTFDDYAMH | GISWNSGSIIYADSVK | VGRLGGYFDY | ND ND ND | 0/9
GFTFDDYPMH | GISWNSGSIGYADSVK | VGRGCGYFDI | 4.55 ND ND | 1/9 (2.96)
GFTFDDYAMH | GISWNSGSIMYADSVC | VGRGRGYFDY | ND 4.75 ND | 1/9 (3.55)
GHTFDDYAMH | GISWNSGSDGYADSVK | VGRGGGYNDY | 4.56 4.46 ND | 4/9 (4.65)
GFMFDDYGMH | GISWNSGSIGYADSVK | VGRGGGYMDY | 1.35 1.15 0.92 | 2/9 (3.73)
GFTIDDYAMH | GISWNSGSIGYADSVK | VPTGGGYFDY | 1.54 1.50 1.04 | 4/9 (4.75)
GFTFDDYAMH | GISWNKGSIGLADSVK | VGRGGGYSDY | 5.14 ND ND | 5/9 (5.08)
GFTFDDYAMH | GIVWNSGNIGYADSVK | VGRGGGYPDY | 6.06 ND 5.56 | 5/9 (4.91)
FCTFDDYAMH | GISWNSGSIGYYDSVK | VGRGGGYFDY | 3.91 ND ND | 1/9 (4.78)
GFTFDDKAMH | GISWNSGSIGYADSVK | VGRGGGYFDT | ND 4.78 ND | 7/9 (4.55)
GFTFDDYAIH | GISWNSGSIGYADAIK | VGRGGGYFDY | 0.38 0.29 -0.23 | 1/9 (5.29)

Extract of 7 entries:

| CDR-H1 | CDR-H2 | CDR-H3 | log10 Kd, replicates | control signals |
|---|---|---|---|---|
| GFTDDDYAMH | GISWNSISIGYADSVK | VGRGGGYGDY | ND ND ND | 0/9 |
| GFTFDDYAMH | GISWNEGSIGYADSFG | VGRGGGYFDY | 4.78 6.31 5.06 | 9/9 (5.28) |
| GFRFEDYAMH | GISWNSGSIGYADSVK | VGRGGGYFDY | 4.49 5.06 4.14 | 4/9 (4.22) |
| GFTFDLYAMH | GISWNSGSIGYRDSVK | VVRGGGYFDY | 2.93 3.22 2.77 | 6/9 (4.74) |
| GFTFDDYAMH | GISWNSGVIGDADSVK | VGSGGGYFDY | ND ND ND | 0/9 |
| EFTFDDYAMH | GISWNSTSIGYADSVK | VGRGGGVFDY | ND ND 3.99 | 0/9 |
| GFTFDDYAMH | GISWNSGSIIYADSVK | VGRLGGYFDY | ND ND ND | 0/9 |